Assay results reported in patent US11858951B2, “Boronic acid derivatives” (Merck Patent GmbH, priority 2017, dated 2024).
pIC50: −log10 of the molar value.

What was measured:
[1] = target: Beta5 (purified human constitutive proteasome) (Homo sapiens, UniProt P28074); assay: Determination of Beta5 activity (fluorescence intensity assay, Suc-LLVY-AMC); assay type: biochemical; conditions: read-out: Beta5 IC50; incubation for 20 minutes at 25° C.; concentrations 30 μM to 15 pM
[2] = target: LMP7 (purified human immuno proteasome) (Homo sapiens, UniProt P28062); assay: Determination of LMP7 activity (fluorescence intensity assay, Suc-LLVY-AMC); assay type: biochemical; conditions: for Selectivity LMP7 vs Beta5: LMP7 versus Beta5, incubation for 20 minutes; for pIC50: read-out: LMP7 IC50, incubation for 20 minutes at 25° C., concentrations 30 μM to 15 pM

| pIC50 [1] | Selectivity LMP7 vs Beta5 [2] | pIC50 [2] | SMILES |
| --- | --- | --- | --- |
| 4.52 to 5.30 | +++ (300 ≤ Selectivity < 500) | > 7.30 | O=C(N[C@@H](Cc1coc2ccccc12)B(O)O)[C@@]12CC[C@@H](O1)c1ccccc12 |
| 5.30 to 6.30 | +++++ (Selectivity ≥700) | > 7.30 | O=C(N[C@@H](Cc1coc2ccccc12)B(O)O)[C@]12CC[C@H](O1)c1ccccc12 |
